## OPERA 2.9 data: properties

From the experimental data distributed with OPERA 2.9.

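OPERA's authors assembled the values from existing databases and did not measure them anew. One number stands for a compound and property, with no spread given. Method, purity and exact conditions of the single measurements are not given. Where a salt, mixture or single isomer is drawn, the source does not say that exactly this form was tested. Some entries may be limits or estimates that an upstream database listed as plain numbers.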

The melting point is given in degrees Celsius.
The boiling point refers to atmospheric pressure (760 mmHg), by the definition of the set.
The octanol-water partition coefficient is given as log10; larger values mean a more lipophilic compound.
Water solubility is log10 of mol/L, nominally at 25 °C; higher is more soluble.
Vapor pressures (log10 mmHg) refer to near room temperature, 15 to 30 °C; higher is more volatile.
The Henry's law constant is on a log10 scale in atm·m3/mol (set defined at 25 °C); higher favours air over water.
The unbound fraction in human plasma runs from 0 (all bound) to 1 (all free).
Intrinsic clearance (human, µL/min per 10^6 hepatocytes): higher is faster turnover, and 0 stands for none detected.
Cells with "n/a" have no entry in this list.

For CCC(F)(F)C(F)(F)C(F)(F)C(F)(F)C(F)(F)C(F)(F)F [1-(Perfluorohexyl)ethane] the data give logP 5.3 and water solubility -6.843 (log10 mol/L) and log vapor pressure 1.461 (log10 mmHg). Listed for Clc1cc(Cl)cc(C2(CC(Cl)(Cl)Cl)CO2)c1 (stereo not given) [Tridiphane]: log vapor pressure -5.658 (log10 mmHg) and log H -6.388 (log10 atm·m3/mol). Listed for CCCCCCCC[N+](C)(C)CCCCCCCC.[Cl-] [Dioctyldimethylammonium chloride]: logP 1.2 and water solubility -3.088 (log10 mol/L) and log vapor pressure -4.913 (log10 mmHg). CCCCCCCCCCCC(=O)OCCCCCCCCCC [Dodecanoic acid, decyl ester] has melting point 21.4 °C and water solubility -8.81 (log10 mol/L) and log vapor pressure -7.151 (log10 mmHg). The entry for CN(C)CCOC(c1ccc(Cl)cc1)c1ccccn1 (stereo not given) [Carbinoxamine] lists logP 2.6 and water solubility -3.106 (log10 mol/L). Listed for CCCC1CCC(=O)O1 (stereo not given) [gamma-Heptalactone]: logP 1 and log vapor pressure 0.322 (log10 mmHg).

c1ccc(N(CC2CO2)CC2CO2)cc1 (stereo not given) [2-Oxiranemethanamine, N-(2-oxiranylmethyl)-N-phenyl-] is reported with BP 204 °C and logP 1.96 and water solubility -1.962 (log10 mol/L) and log vapor pressure -3.894 (log10 mmHg). Listed for CC1=NN(c2ccccc2)C(=O)C1=CC1C(=O)N(c2ccccc2)N=C1C (stereo not given): melting point 183 °C and logP 5.02 and water solubility -7.882 (log10 mol/L). For CCCCOCC(C)OCC(C)O (stereo not given) [1-[(1-Butoxy-2-propanyl)oxy]-2-propanol] the data give BP 229.9 °C and log vapor pressure -1.386 (log10 mmHg). Nc1nc(=O)c2nc(CNc3ccc(C(=O)N[C@@H](CCC(=O)O)C(=O)O)cc3)cnc2[nH]1 [Folic acid] is reported with logP -2.61 and water solubility -5.44 (log10 mol/L) and log vapor pressure -10 (log10 mmHg) and hepatic Clint 0 µL/min/10^6 cells. CCCCN(CCCC)C(=O)N(CCCC)CCCC [1,1,3,3-Tetrabutylurea] has water solubility -4.821 (log10 mol/L) and log vapor pressure -3.846 (log10 mmHg). C=C(C)C(=O)OC1CCCCC1 [Cyclohexyl methacrylate] is reported with melting point -104 °C and logP 3.13 and water solubility -3.095 (log10 mol/L) and log vapor pressure -0.821 (log10 mmHg).

CS(=O)(=O)OC[C@H]1CO[C@](Cn2ccnc2)(c2ccc(Cl)cc2Cl)O1.Cl (relative stereo) is reported with melting point 166.6 °C and logP 2.2. CNCCOCCN(C)C [N,N-Dimethyl-2-[2-(methylamino)ethoxy]ethan-1-amine] has BP 189.2 °C and log vapor pressure -0.267 (log10 mmHg). CC(C)n1c(/C=C/[C@@H](O)C[C@@H](O)CC(=O)OC(C)(C)C)c(-c2ccc(F)cc2)c2ccccc21 (racemic) is reported with melting point 141.5 °C and logP 4.8 and water solubility -6.625 (log10 mol/L). Listed for CC(CO)CC(C)c1ccccc1 (stereo not given) [2-Methyl-4-phenylpentanol]: logP 3.01 and water solubility -2.348 (log10 mol/L) and log vapor pressure -2.643 (log10 mmHg). For CCCCCCCCCCCCCCCCCCNC(=O)CCc1cc(C(C)(C)C)c(O)c(C(C)(C)C)c1 the data give melting point 85 °C and log vapor pressure -6.312 (log10 mmHg). For CCOc1ncc(C)c2c1C(c1ccc(C#N)cc1OC)C(C(=O)OCCC#N)=C(C)N2 (stereo not given) the data give melting point 195.7 °C and water solubility -6.174 (log10 mol/L).

Listed for CC(C)CCCC(C)CCO (stereo not given) [3,7-Dimethyloctan-1-ol]: logP 3.99 and water solubility -3.393 (log10 mol/L) and log vapor pressure -1.967 (log10 mmHg). CC(=O)N[C@@H](Cc1cc([N+](=O)[O-])c(O)c([N+](=O)[O-])c1)C(=O)O is reported with melting point 170 °C and water solubility -2.228 (log10 mol/L) and log vapor pressure -4.912 (log10 mmHg). The entry for CCCCOC(=O)OCCCC [Carbonic acid, dibutyl ester] lists logP 3.2 and water solubility -3.141 (log10 mol/L) and log vapor pressure -0.765 (log10 mmHg). CSCSC [Methane, bis(methylthio)-] has logP 2.31 and water solubility -1.54 (log10 mol/L) and log vapor pressure 0.638 (log10 mmHg). The entry for CCC(C)(C)OC [Tert-amyl methyl ether] lists fu 0.8097 and hepatic Clint 2.1 µL/min/10^6 cells. CC(C)(c1ccccc1)C(C)(C)c1ccccc1 [1,1'-(1,1,2,2-Tetramethylethylene)dibenzene] has logP 6.59 and water solubility -6.474 (log10 mol/L) and log vapor pressure -3.821 (log10 mmHg).

For O=P(O)(O)C(Sc1ccc(Cl)cc1)P(=O)(O)O [Tiludronic acid] the data give logP -0.6 and water solubility -1.66 (log10 mol/L) and fu 0.1. CCCOc1ccc(C2=CCC([C@H]3CC[C@H](CCC)CC3)CC2)c(F)c1F (some centres not stated) has BP 404 °C and water solubility -6.934 (log10 mol/L) and log vapor pressure -8.64 (log10 mmHg). OCCOCCOc1ccccc1 [Diethylene glycol monophenyl ether] has logP 1.35 and log vapor pressure -3.046 (log10 mmHg). Clc1ccc(Oc2c(Cl)cc(Cl)c(Cl)c2Cl)c(Cl)c1 [2,2',4,4',5,6-Hexachlorodiphenyl ether] has melting point 121 °C and water solubility -8.285 (log10 mol/L). For CCCCCCCCCCCC(=O)N[C@@H](CCC(=O)NCCCC)C(=O)NCCCC the data give melting point 158.8 °C and logP 5.25 and water solubility -7.544 (log10 mol/L) and log vapor pressure -5.881 (log10 mmHg). CCOc1nc2cccc(C(=O)O)c2n1Cc1ccc(-c2ccccc2-c2nc(=O)o[nH]2)cc1 [Azilsartan] is reported with melting point 213 °C and logP 0.9.

For CCCCCCCCC1OC1CCCCCCCC(=O)OCC(COC(C)=O)OC(C)=O (stereo not given) the data give melting point -1 °C and BP 294.3 °C. C=C(OCC)C1C(C)(C)CC(=O)CC1(C)C [4-(1-Ethoxyethenyl)-3,3,5,5-tetramethylcyclohexanone] is reported with logP 4.3 and water solubility -3.643 (log10 mol/L) and log vapor pressure -2.324 (log10 mmHg). Listed for O=CCCCC=O [Glutaraldehyde]: logP -0.36 and water solubility 0.223 (log10 mol/L).

The last 5 entries again:

compound	name	melting point (°C)	BP (°C)	logP	water solubility (log10 mol/L)	log vapor pressure (log10 mmHg)	log H (log10 atm·m3/mol)	fu	hepatic Clint (µL/min/10^6 cells)
CCCCCCCCCCCC(=O)N[C@@H](CCC(=O)NCCCC)C(=O)NCCCC	n/a	158.8	n/a	5.25	-7.544	-5.881	n/a	n/a	n/a
CCOc1nc2cccc(C(=O)O)c2n1Cc1ccc(-c2ccccc2-c2nc(=O)o[nH]2)cc1	Azilsartan	213	n/a	0.9	n/a	n/a	n/a	n/a	n/a
CCCCCCCCC1OC1CCCCCCCC(=O)OCC(COC(C)=O)OC(C)=O (stereo not given)	n/a	-1	294.3	n/a	n/a	n/a	n/a	n/a	n/a
C=C(OCC)C1C(C)(C)CC(=O)CC1(C)C	4-(1-Ethoxyethenyl)-3,3,5,5-tetramethylcyclohexanone	n/a	n/a	4.3	-3.643	-2.324	n/a	n/a	n/a
O=CCCCC=O	Glutaraldehyde	n/a	n/a	-0.36	0.223	n/a	n/a	n/a	n/a